± gives the expanded uncertainty stated by the source.
Assay: activity coefficient (dimensionless); of the first substance listed, at infinite dilution; xn = mol fraction of the nth substance listed
Conditions: 101.33 kPa, Liquid, Chromatography, x1 = 0

CCCCOCCCC [dibutyl ether] + CCCCCCCCCCCCCC[P+](CCCCCC)(CCCCCC)CCCCCC.N#CC(=C=[N-])C#N
activity coefficient (328.15 K): 1.7 ± 0.11 | activity coefficient (338.15 K): 1.75 ± 0.12 | activity coefficient (348.15 K): 1.79 ± 0.12 | activity coefficient (358.15 K): 1.83 ± 0.12 | activity coefficient (368.15 K): 1.86 ± 0.13
